Data: patent US10865201B2, “Bicyclic compounds useful as GPR120 modulators” (Valo Health, Inc., priority 2016, dated 2020)

Chains of the proteins cited; added tags and fusions are not shown. Residues count along the entry.
UniProt Q5NUL3, 1-377 isoform 1: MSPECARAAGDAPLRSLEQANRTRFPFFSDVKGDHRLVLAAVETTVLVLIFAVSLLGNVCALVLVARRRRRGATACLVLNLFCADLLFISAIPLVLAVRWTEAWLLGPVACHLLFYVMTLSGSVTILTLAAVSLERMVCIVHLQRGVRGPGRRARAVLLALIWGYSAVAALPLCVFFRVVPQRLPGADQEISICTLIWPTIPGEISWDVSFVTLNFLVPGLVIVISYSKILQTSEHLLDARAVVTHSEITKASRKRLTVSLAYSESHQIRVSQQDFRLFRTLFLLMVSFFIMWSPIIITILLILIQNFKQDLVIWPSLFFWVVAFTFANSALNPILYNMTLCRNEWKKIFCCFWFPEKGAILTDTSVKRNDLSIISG
UniProt P32121, whole entry partner: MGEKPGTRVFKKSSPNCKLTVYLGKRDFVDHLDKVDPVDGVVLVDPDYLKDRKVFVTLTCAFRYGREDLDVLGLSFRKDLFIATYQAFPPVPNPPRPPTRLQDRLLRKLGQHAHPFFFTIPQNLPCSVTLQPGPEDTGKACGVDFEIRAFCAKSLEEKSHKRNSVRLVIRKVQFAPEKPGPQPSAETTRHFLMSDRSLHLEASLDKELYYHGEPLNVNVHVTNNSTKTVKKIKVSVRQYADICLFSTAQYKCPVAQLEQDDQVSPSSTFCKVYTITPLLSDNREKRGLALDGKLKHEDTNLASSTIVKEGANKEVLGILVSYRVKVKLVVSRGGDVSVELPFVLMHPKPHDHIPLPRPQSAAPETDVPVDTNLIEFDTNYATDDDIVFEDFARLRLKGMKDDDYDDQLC

Molecular target: human GPR120 (Homo sapiens, UniProt Q5NUL3)
Assay: Human GPR120 β-Arrestin Recruitment Assay
Settings: CHO-K1 cells co-expressing ProLink-tagged human GPR120 and β-Arrestin 2/β-gal fusion; PathHunter; 90 minutes at 37° C.
Description: This in vitro assay tests compounds' ability to activate intracellular signaling via β-Arrestin recruitment to heterologously expressed human GPR120. This functional cellular assay utilizes enzyme fragment complementation with β-galactosidase (β-gal) as a functional reporter (DiscoveRx PathHunter® β-Arrestin assay platform). The human GPR120 receptor (GenBank accession Number NM_181745) was fused in frame with the small enzyme fragment ProLink™ and co-expressed in CHO-K1 cells with a fusion protein of β-Arrestin 2 and the larger, N-terminal deletion mutant of β-gal. Activation by a GPR120 agonist stimulates binding of β-arrestin to the ProLink-tagged GPCR and forces complementation of the two enzyme fragments, resulting in the formation of an active β-gal enzyme. This interaction leads to an increase in enzyme activity that can be measured using chemiluminescent PathHunter® Detection Reagents.
One day prior to the assay, cells were seeded in a total volume of 20 μl of growth medium into white walled 384-well microplates and incubated at 37° C./5% CO2 overnight. […]
Test compounds were dissolved in 100% DMSO to a concentration of 10 mM to provide stock solutions. […] Chemiluminescence was read using an EnVision plate reader (PerkinElmer), raw data were expressed as relative light units (RLU). […]

O=S1(=O)c2ccc(Oc3cccnc3)cc2CN1Cc1ccccn1
β-Arr pEC50: <5.0
